Experimental data: patent US7786328B2, “Cyclohexyl-1,4-diamine compounds” (dated 2010)

Amino acid sequences for entries named in this document (tags omitted). A change or cut given only in a name is not applied to a line headed by its entry.
UniProt P35372, whole entry, looked up: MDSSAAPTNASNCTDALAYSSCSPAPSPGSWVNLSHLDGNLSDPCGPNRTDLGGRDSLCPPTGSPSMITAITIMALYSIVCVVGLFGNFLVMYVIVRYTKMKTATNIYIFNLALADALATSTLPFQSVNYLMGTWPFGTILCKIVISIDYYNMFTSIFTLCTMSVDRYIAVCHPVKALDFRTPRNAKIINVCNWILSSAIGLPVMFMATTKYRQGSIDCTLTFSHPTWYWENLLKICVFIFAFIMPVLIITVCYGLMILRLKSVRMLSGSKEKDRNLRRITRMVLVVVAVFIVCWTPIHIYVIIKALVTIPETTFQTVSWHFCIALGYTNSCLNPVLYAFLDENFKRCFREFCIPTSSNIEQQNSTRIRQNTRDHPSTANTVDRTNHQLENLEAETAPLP
UniProt P41146: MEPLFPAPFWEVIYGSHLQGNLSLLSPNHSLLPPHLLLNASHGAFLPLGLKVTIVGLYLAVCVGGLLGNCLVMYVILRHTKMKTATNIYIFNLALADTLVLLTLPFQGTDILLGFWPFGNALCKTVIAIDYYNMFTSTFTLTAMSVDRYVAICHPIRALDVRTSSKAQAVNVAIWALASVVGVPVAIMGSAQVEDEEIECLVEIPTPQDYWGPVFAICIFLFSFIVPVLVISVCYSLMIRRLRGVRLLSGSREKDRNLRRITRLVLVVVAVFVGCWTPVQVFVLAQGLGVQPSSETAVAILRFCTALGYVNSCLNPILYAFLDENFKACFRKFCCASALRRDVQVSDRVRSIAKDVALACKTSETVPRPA

Tests used:
human μ-opiate receptor = human μ-opiate receptor (Homo sapiens, UniProt P35372); test: Measurement of the μ binding ([3H]-naloxone displacement, CHO-K1 membrane preparation); conditions: test substance 1 μM; inhibition of specific binding of 1 nmol/l [3H]-naloxone
ORL1 receptor = ORL1 receptor (Homo sapiens, UniProt P41146); test: Measurement of the ORL1 binding (3H-nociceptin/orphanin FQ, membranes from recombinant CHO-ORL1 cells); conditions: c=1 μM; 0.5 nM 3H-nociceptin/orphanin FQ

SMILES | μ-Opiate receptor [1 μM], % inhibition (human μ-opiate receptor) [%] | ORL1 [1 μM], % inhibition (ORL1 receptor) [%]
COCC(=O)NC1CCC(c2cccc(F)c2)(N(C)C)CC1 (centres unmarked) | 73 | 43
CN(C)C1(c2ccccc2)CCC(NC(=O)CCCOc2ccccc2)CC1 (centres unmarked) | 95 | 99
Cc1ccc(C)c(OC(CCC(C)(C)C(=O)NC2CCC(c3cccc(F)c3)(N(C)C)CC2)CC(=O)O)c1 (centres unmarked) | 91 | 63
COC(=O)CCCC(=O)NC1CCC(c2cccc(F)c2)(N(C)C)CC1 (centres unmarked) | 93 | 91
CC(=O)OC(C(=O)NC1CCC(c2cccc(F)c2)(N(C)C)CC1)c1ccccc1 (centres unmarked) | 99 | 93
CN(C)C1(Cc2cccc(F)c2)CCC(NC(=O)c2ccccc2COC(=O)c2ccccc2)CC1 (centres unmarked) | 98 | 60
CN(C)C1(Cc2ccccc2)CCC(NC(=O)c2ccccc2COC(=O)c2ccccc2)CC1 (centres unmarked) | 97 | 62
CC(=O)OC(C(=O)NC1CCC(c2cccs2)(N(C)C)CC1)c1ccccc1 (centres unmarked) | 100 | 78
COCCOCC(=O)NC1CCC(c2cccs2)(N(C)C)CC1 (centres unmarked) | 101 | 64
CN(C)C1(c2cccs2)CCC(NC(=O)CSCc2ccccc2)CC1 (centres unmarked) | 95 | 96
CN(C)C1(c2ccccc2)CCC(NC(=O)c2ccccc2COC(=O)c2ccccc2)CC1 (centres unmarked) | 97 | 82
Cc1cccc(CC2(N(C)C)CCC(NC(=O)CCc3ccccc3OC(=O)c3ccccc3)CC2)c1 (centres unmarked) | 47 | 
Cc1ccc(CC2(N(C)C)CCC(NC(=O)COc3ccc(Cl)cc3)CC2)cc1 (centres unmarked) | 56 | 
COc1ccc(Oc2ccc([N+](=O)[O-])cc2C(=O)NC2CCC(Cc3cccc(Cl)c3)(N(C)C)CC2)cc1 (centres unmarked) | 77 | 
CC(=O)OC(C(=O)NC1CCC(Cc2cccc(C)c2)(N(C)C)CC1)c1ccccc1 (centres unmarked) | 64 | 
CC(=O)OCC(=O)NC1CCC(c2cccc(F)c2)(N(C)C)CC1 (centres unmarked) | 81 | 56
CN(C)C1(Cc2ccccc2Cl)CCC(NC(=O)COCc2ccccc2)CC1 (centres unmarked) | 79 | 
Cc1cc(Cl)ccc1OCCCC(=O)NC1CCC(CCc2ccccc2)(N(C)C)CC1 (centres unmarked) | 61 | 
CN(C)C1(c2ccccc2)CCC(NC(=O)COc2cccc(Cl)c2)CC1 (centres unmarked) | 97 | 97

SMILES | μ-Opiate receptor [1 μM], % inhibition (human μ-opiate receptor) [%] | ORL1 [1 μM], % inhibition (ORL1 receptor) [%]
CN(C)C1(c2cccc(F)c2)CCC(NC(=O)c2ccccc2COC(=O)c2ccccc2)CC1 (centres unmarked) | 98 | 88
CC(=O)OC(C(=O)NC1CCC(Cc2ccc(F)cc2)(N(C)C)CC1)c1ccccc1 (centres unmarked) | 45 | 
CC(Oc1ccccc1)C(=O)NC1CCC(Cc2cccc(Cl)c2)(N(C)C)CC1 (centres unmarked) | 70 | 
CN(C)C1(Cc2cccc(Cl)c2)CCC(NC(=O)COCc2ccccc2)CC1 (centres unmarked) | 71 | 
CC(C)=NOC(C)C(=O)NC1CCC(Cc2ccccc2F)(N(C)C)CC1 (centres unmarked) | 41 | 
CN(C)C1(Cc2ccccc2F)CCC(NC(=O)COc2ccc(Cl)cc2)CC1 (centres unmarked) | 85 | 
CN(C)C1(CCc2ccccc2)CCC(NC(=O)C(C)(C)Oc2ccc(CCNC(=O)c3ccc(Cl)cc3)cc2)CC1 (centres unmarked) | 41 | 
Cc1cccc(CC2(N(C)C)CCC(NC(=O)c3ccccc3COC(=O)c3ccccc3)CC2)c1 (centres unmarked) | 106 | 44
CSCC(=O)NC1CCC(Cc2cccc(F)c2)(N(C)C)CC1 (centres unmarked) | 55 | 
CN(C)C1(Cc2cccc(F)c2)CCC(NC(=O)C(C)(C)Oc2ccc(CCNC(=O)c3ccc(Cl)cc3)cc2)CC1 (centres unmarked) | 48 | 
CC(Oc1ccccc1)C(=O)NC1CCC(Cc2cccc(F)c2)(N(C)C)CC1 (centres unmarked) | 57 | 
Cc1ccc(CC2(N(C)C)CCC(NC(=O)C(C)Oc3ccccc3)CC2)cc1 (centres unmarked) | 49 | 
O=C(OCc1ccccc1C(=O)NC1CCC(c2ccccc2)(N2CCCCC2)CC1)c1ccccc1 (centres unmarked) | 44 | 
CN(C)C1(c2cccc(F)c2)CCC(NC(=O)c2ccccc2Oc2ccccc2)CC1 (centres unmarked) | 98 | 84
CN(C)C1(Cc2ccccc2F)CCC(NC(=O)c2ccccc2COC(=O)c2ccccc2)CC1 (centres unmarked) | 96 | 
O=C(COc1ccccc1)NC1CCC(Cc2ccccc2)(N2CCCCCC2)CC1 (centres unmarked) | 41 | 
CN(C)C1(Cc2ccccc2Cl)CCC(NC(=O)COc2ccccc2)CC1 (centres unmarked) | 86 | 
CN(C)C1(Cc2ccc(F)cc2)CCC(NC(=O)COc2ccccc2)CC1 (centres unmarked) | 51 | 
Cc1cc(Cl)ccc1OCCCC(=O)NC1CCC(Cc2ccccc2)(N(C)C)CC1 (centres unmarked) | 52 | 

SMILES | μ-Opiate receptor [1 μM], % inhibition (human μ-opiate receptor) [%] | ORL1 [1 μM], % inhibition (ORL1 receptor) [%]
CCC(Oc1ccccc1)C(=O)NC1CCC(Cc2ccccc2Cl)(N(C)C)CC1 (centres unmarked) | 76 | 
CC(Oc1ccccc1)C(=O)NC1CCC(Cc2ccc(F)cc2)(N(C)C)CC1 (centres unmarked) | 77 | 
CN(C)C1(Cc2cccc(Cl)c2)CCC(NC(=O)CSCc2ccccc2)CC1 (centres unmarked) | 73 | 
CN(C)C1(Cc2ccc(F)cc2)CCC(NC(=O)c2ccccc2COC(=O)c2ccccc2)CC1 (centres unmarked) | 95 | 
O=C(COc1ccc(Cl)cc1)NC1CCC(Cc2ccccc2)(N2CCCC2)CC1 (centres unmarked) | 63 | 
COCCOCC(=O)NC1CCC(c2ccccc2)(N(C)C)CC1 (centres unmarked) | 91 | 70
CN(C)C1(Cc2ccccc2Cl)CCC(NC(=O)COc2ccc(Cl)cc2)CC1 (centres unmarked) | 66 | 
O=C(OCc1ccccc1C(=O)NC1CCC(Cc2ccccc2)(N2CCCC2)CC1)c1ccccc1 (centres unmarked) | 94 | 
Cc1cccc(CC2(N(C)C)CCC(NC(=O)CSc3ccc(C(F)(F)F)cn3)CC2)c1 (centres unmarked) | 55 | 
Cc1ccccc1CC1(N(C)C)CCC(NC(=O)c2ccccc2Oc2ccccc2)CC1 (centres unmarked) | 85 | 
Cc1ccccc1CC1(N(C)C)CCC(NC(=O)COc2ccc(Cl)cc2)CC1 (centres unmarked) | 80 | 
CN(C)C1(Cc2ccc(F)cc2)CCC(NC(=O)C(C)(C)Oc2ccccc2Cl)CC1 (centres unmarked) | 89 | 
CN(C)C1(Cc2ccc(Cl)cc2)CCC(NC(=O)COCc2ccccc2)CC1 (centres unmarked) | 52 | 
CN(C)C1(Cc2ccccc2Cl)CCC(NC(=O)c2ccccc2COC(=O)c2ccccc2)CC1 (centres unmarked) | 90 | 
Cc1cccc(CC2(N(C)C)CCC(NC(=O)CSCc3ccccc3)CC2)c1 (centres unmarked) | 71 | 
CC(=O)OCC(=O)NC1CCC(Cc2ccccc2Cl)(N(C)C)CC1 (centres unmarked) | 48 | 
CN(C)C1(Cc2cccc(Cl)c2)CCC(NC(=O)CCc2ccccc2OC(=O)c2ccccc2)CC1 (centres unmarked) | 42 | 
CN(C)C1(Cc2cccc(Cl)c2)CCC(NC(=O)c2ccccc2COC(=O)c2ccccc2)CC1 (centres unmarked) | 100 | 
CN(C)C1(Cc2cccc(Cl)c2)CCC(NC(=O)COc2cccc(Cl)c2)CC1 (centres unmarked) | 79 | 
